# From patent US4125615A, “2-[4-(P-Aminobenzyl)-1-piperazinyl]-8-ethyl-5,8-dihydro-5-oxopyrido[2,3-d]p y” (priority 1976, dated 1978)
# What was measured:
# [1] = in vivo; conditions: mouse, po
# Description: (§1) (5) acute toxicity in mice
# (§2) Female ddY strain mice, weighing 25 to 33 g, were used. Test compounds were suspended in 0.2% carboxymethyl cellulose for oral administration, and dissolved in NaOH solution (final pH 8.8-9.2) for intravenous administration.
# [2] = tested on: mice; test: in vivo; conditions: mouse, iv, 168 h
# Description: as §1, §2
smiles,measurement,setting,value
"CCn1cc(C(=O)O)c(=O)c2cnc(N3CCNCC3)nc21 [Compound PPA, 2-(1-piperazinyl)-8-ethyl-5,8-dihydro-5-oxopyrido [2,3-d]pyrimidine-6-carboxylic acid]",LD50 at 168 h,[1],> 2000 mg/kg
same,LD50 (intravenous administration),[2],707 mg/kg
